Results: patent publication US20140234420A1, “Method of Treating Skin Disorders using Nanoscale Delivery Devices and Transdermal Enhancing Compositions” (priority 2008, published 2014)

Test: Encapsulation (entrapment) efficiency
Assay type: physicochemical
Details: drug encapsulated in zein/lecithin/squalene nanoemulsions
Protocol: Detection wavelength: 340 nm; Injection volume: 50 μl: Run time: 10 min. […] The resulting solution was centrifuged at 5000 rpm for 5 min. […] The resulting solution was centrifuged 5000 rpm for 5 min. […] Further the size was much more uniform in case of nanoemulsions as evidenced from the low polydispersity index (PDI). The zeta potential was high in case of nanoemulsions signifying the high physical stability of these nanocarriers. […] In vitro release of MTX from the formulations in phosphate buffer (pH 7.4) was studied using UV-spectrophotometry. […] Benzoyl peroxide content was measured using HPLC.

CC1=C(/C=C/C(C)=C/C=C/C(C)=C/C(=O)O)C(C)(C)CCC1 [Retinoic acid]
% EE: 81.4 ± 2.45%
